{"sequences": {"note": "By UniProt entry, the sequences of proteins in these tests, tags left out. Where a name states a change or a piece, a line headed by the entry shows the natural chain unless it says otherwise.", "UniProt P18507": "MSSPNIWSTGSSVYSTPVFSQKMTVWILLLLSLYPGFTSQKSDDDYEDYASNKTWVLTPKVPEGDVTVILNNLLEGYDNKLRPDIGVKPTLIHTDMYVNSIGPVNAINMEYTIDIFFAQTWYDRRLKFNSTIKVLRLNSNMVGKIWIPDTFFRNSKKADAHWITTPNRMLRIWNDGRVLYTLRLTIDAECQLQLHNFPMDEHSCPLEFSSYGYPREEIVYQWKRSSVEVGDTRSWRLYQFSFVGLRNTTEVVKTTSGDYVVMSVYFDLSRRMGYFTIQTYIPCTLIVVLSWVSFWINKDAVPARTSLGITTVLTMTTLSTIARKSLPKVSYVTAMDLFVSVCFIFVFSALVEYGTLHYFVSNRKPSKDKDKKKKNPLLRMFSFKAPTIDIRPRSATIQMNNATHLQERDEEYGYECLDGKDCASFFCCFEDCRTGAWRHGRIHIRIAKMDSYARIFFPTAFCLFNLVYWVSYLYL", "UniProt P28472": "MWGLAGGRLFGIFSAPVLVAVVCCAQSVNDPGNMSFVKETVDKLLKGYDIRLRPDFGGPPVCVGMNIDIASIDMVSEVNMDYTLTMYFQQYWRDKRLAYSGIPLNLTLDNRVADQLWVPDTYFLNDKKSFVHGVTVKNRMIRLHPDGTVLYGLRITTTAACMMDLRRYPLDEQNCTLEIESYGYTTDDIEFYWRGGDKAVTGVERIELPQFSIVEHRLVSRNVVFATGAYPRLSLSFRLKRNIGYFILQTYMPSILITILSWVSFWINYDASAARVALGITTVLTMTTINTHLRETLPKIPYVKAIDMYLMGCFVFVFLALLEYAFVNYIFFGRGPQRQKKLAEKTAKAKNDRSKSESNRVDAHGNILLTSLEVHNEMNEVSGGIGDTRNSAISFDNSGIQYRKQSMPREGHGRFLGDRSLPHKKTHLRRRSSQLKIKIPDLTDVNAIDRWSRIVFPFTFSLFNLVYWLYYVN", "UniProt P31644": "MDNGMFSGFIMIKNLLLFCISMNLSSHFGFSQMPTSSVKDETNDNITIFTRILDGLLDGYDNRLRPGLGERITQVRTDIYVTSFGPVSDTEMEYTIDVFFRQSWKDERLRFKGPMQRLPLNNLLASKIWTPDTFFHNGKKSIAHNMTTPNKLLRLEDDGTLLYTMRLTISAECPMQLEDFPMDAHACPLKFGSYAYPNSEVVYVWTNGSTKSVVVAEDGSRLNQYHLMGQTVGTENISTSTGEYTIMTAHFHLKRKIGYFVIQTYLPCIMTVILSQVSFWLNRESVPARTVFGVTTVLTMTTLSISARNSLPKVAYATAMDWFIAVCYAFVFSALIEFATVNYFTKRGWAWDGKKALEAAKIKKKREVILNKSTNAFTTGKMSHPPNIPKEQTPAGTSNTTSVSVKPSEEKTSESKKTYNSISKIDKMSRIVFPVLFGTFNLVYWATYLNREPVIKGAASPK"}, "source": "ChEMBL document CHEMBL1139460", "about": "(J Med Chem, 2005)", "target": "GABA-A receptor; alpha-5/beta-3/gamma-2 (Homo sapiens) (UniProt P18507+P28472+P31644)", "assay": "Efficacy at human recombinant GABAA alpha-5-beta-3-gamma-2 receptor", "assay_type": "protein-complex assay"}
{"compound": "CCn1ncnc1COc1nn2c(-c3ccccc3F)nnc2cc1C(C)(C)C", "note": "[MK-0777]", "values": [{"measurement": "Efficacy", "value": 6, "unit": "%"}]}
